# This is a selection; strong and weak results do not stand in their true shares. The source made the active and inactive calls.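 Rule for the calls: active = inhibition above about 50% (limit read from the data); inactive = the rest.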
# Tested on: calpain II (m-calpain), Sus scrofa
# Experiment: m-calpain protease activity blockers – biochemical, fluorogenic peptide substrate, 1536-well, primary screen (AID 1236)
# Settings: purified calpain II, 30 min, at 16 µM, stronger effect = higher value
row,Structure (SMILES),inhibition
1,CCC(=O)N1C2C3N(C(=O)CC)C1C1N(C(=O)CC)C(C(N1C(=O)CC)N3C(=O)CC)N2C(=O)CC,inactive: 2.4%
2,Cc1ccc(OP(=O)(Nc2ccccn2)Oc2ccc(C)cc2)cc1,inactive: 31.4%
3,CC(=O)NC(SC(=S)N(CC(C)C)CC(C)C)C(Cl)(Cl)Cl (stereo not drawn),inactive: 36.9%
4,COC(=O)c1cc2c(s1)N=C(c1ccccc1)N(C)P2(=O)N1CCOCC1 (stereo not drawn),inactive: 2.2%
5,O=c1c2cc([N+](=O)[O-])ccc2[nH]c2c([N+](=O)[O-])cc([N+](=O)[O-])cc12,inactive: -6.81%
6,CN(C)C(=O)Oc1noc2ccccc12,inactive: -0.77%
7,Cc1ccccc1OP(=O)(Nc1ccccn1)Oc1ccccc1C,inactive: -0.47%
8,CCOC(=O)NC(Sc1ccccc1)C(Cl)(Cl)Cl (stereo not drawn),inactive: 29.2%
9,Cc1ccc(NP(=O)(Oc2cccc(C)c2)Oc2cccc(C)c2)nc1,inactive: 19.5%
10,c1ccc(-c2nn[nH]n2)c(-c2nn[nH]n2)c1,inactive: 5.91%
11,O=C(NC1CCS(=O)(=O)C1)NP(=S)(Oc1ccccc1)Oc1ccccc1 (stereo not drawn),inactive: 15.5%
12,CCNC(=S)/N=C(\N)N[N+](=O)[O-],inactive: -23.5%
13,C[C@H]1OP(=O)(Oc2ccccc2)C[C@@H]2O[C@@H]21 (stereo partly drawn),inactive: -6.93%
14,C[C@@H]1C=CCP(=O)(Oc2ccccc2)O1 (stereo partly drawn),inactive: -15.4%
15,CC(=O)Nc1ccc(Oc2c([N+](=O)[O-])cc([N+](=O)[O-])cc2[N+](=O)[O-])cc1,inactive: 33%
16,CC(=O)Nc1ccc([As](=O)(O)O)c(O)c1,inactive: -6.19%
17,CCOc1ccc(C2=NCC(CBr)S2)cc1 (stereo not drawn),inactive: 17.1%
18,O=P1(Nc2nc3ccc(Cl)cc3s2)COc2ccccc2O1 (stereo not drawn),inactive: 9.31%
19,CC(C)(C)C(=O)NC(Sc1ccccc1)C(Cl)(Cl)Cl (stereo not drawn),inactive: 5.22%
20,O=P(Nc1nccs1)(c1ccccc1)c1ccccc1,inactive: -28.6%
21,CC(C)C(=O)NC(Sc1ccccc1)C(Cl)(Cl)Cl (stereo not drawn),inactive: -16.1%
22,c1nnnn1CCn1cnnn1,inactive: -33.9%
23,O=[As](O)(c1ccccc1)c1ccc(O)cc1,inactive: 4.01%
24,O=[N+]([O-])c1ncn(CCn2cnc([N+](=O)[O-])n2)n1,inactive: -3.27%
25,CC(=O)NC(SC(=S)N(C)C)C(Cl)(Cl)Cl (stereo not drawn),inactive: -6.42%
26,O=C(OC1CN2CCC1CC2)c1cccc(Cl)c1 (stereo not drawn),inactive: -16.5%
27,C(Cc1nn[nH]n1)Cc1nn[nH]n1,inactive: -11.3%
28,Nc1ccc([As](=O)(O)c2ccc([N+](=O)[O-])cc2)cc1,inactive: 2.25%

# — PubChem BioAssay AID1236 (Emory University Molecular Libraries Screening Center, 2008)
